Biological target: T1, Peptide deformylase (Escherichia coli, UniProt Q9JN24)
T1 sequence (Q9JN24 whole entry): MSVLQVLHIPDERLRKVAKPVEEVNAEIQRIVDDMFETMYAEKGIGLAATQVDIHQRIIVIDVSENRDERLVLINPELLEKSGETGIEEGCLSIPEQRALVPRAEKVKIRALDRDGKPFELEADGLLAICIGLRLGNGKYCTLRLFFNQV
Test: Inhibitory activity against isolated Escherichia coli peptidyl deformylase (PDF) enzyme containing iron.

Row | Structure (SMILES) | IC50 [nM]
1 | CC(CC(=O)NO)S(=O)(=O)c1ccccc1 (centres undefined) | 22000
2 | CCCCC(CC(=O)NO)S(=O)(=O)c1ccc(Br)cc1 (centres undefined) | 120
3 | CCCCC(CC(=O)NO)S(=O)(=O)C1CCCCC1 (centres undefined) | 230
4 | O=C(CC(c1ccc2c(c1)OCO2)S(=O)(=O)c1ccccc1)NO (centres undefined) | 1100
